# AlphaSeq binding of Ab-14 light chain variants to a spike HR2 peptide

The measurements come from Li et al. 2023 (doi:10.1038/s41467-023-39022-2) through the FLAb antibody collection.

Antigen: PDVDLGDISGINAS, a 14-residue peptide of the SARS-CoV-2 spike HR2 region.

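The parent was found by panning a naive human phage display library on the peptide. Designed CDR sequences, proposed from the first random library and measured here. Their group label is 14L_En_HC (En: ensemble of fine-tuned language models; HC: hill climbing; a sequence that several methods proposed may carry one label only). The assay is AlphaSeq: two haploid yeast populations carry antibody and antigen on their surface. Binding brings cells together so that they mate, and sequencing counts the barcode pairs among the diploids. Scores were corrected for input abundance and mapped to Kd with protein pairs of known affinity run in the same pool. Mating was done six times.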

Each scFv is VH, a (GGGGS)3 linker, VL, as in the parent Ab-14, and differs from it in the CDRs of the light chain only.
VH: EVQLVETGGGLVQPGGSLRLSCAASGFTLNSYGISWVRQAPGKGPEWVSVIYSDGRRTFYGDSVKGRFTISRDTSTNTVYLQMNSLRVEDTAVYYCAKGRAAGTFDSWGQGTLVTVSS
VL: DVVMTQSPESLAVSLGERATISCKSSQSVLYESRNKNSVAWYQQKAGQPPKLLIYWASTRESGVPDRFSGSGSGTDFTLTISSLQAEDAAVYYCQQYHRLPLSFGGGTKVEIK

Variants are written as CDR1, CDR2 and CDR3 of the light chain (limits as in the source). Parent: KSSQSVLYESRNKNSVA, WASTRES, QQYHRLPLS. The read-out is the apparent dissociation constant on a log10 scale (nM): the lower, the stronger. Replicates are averaged; those with no signal do not enter the mean. A pair that was not seen in that replicate is written "nd"; this usually means weak binding, but a binder can also be missed. As a blank, each scFv also met three strains without target: over all light chain designs, 4% of these pairings were detected, typically at 2.64 and seldom below 1.59. Also given: how often the same scFv was detected with the empty control strains, with their mean in brackets.

CDR-L1,CDR-L2,CDR-L3,"log10 Kd, replicates",mean log10 Kd (nM),signal with controls
MISDTGLHDSRMYNSVA,NNSTREA,QQYHRLPLS,2.08 2.00 2.37 2.26 2.53 2.01,2.21,2 of 18 (2.86)
MISQLFMYGSRNYNSIA,QASTRFK,QQYDRLPLI,nd 1.29 nd nd nd 1.17,1.23,0 of 18
KFGQSVLMGSTVRNSVA,QQSTREN,QQYDRLPLS,0.62 0.43 0.38 -0.07 0.31 0.17,0.31,1 of 18 (2.64)
KISQSILFMSGNNNAIA,QMEMREE,QQYHRLPLS,0.62 0.46 0.63 0.82 0.37 0.54,0.57,1 of 18 (1.45)
NISESMYYQSRNKNNIA,EMSTRER,QHYHRLPLS,0.48 0.08 0.63 0.76 0.37 0.59,0.48,1 of 18 (2.38)
KLTGVTSYEMQNKNSVA,QMTTRES,QQYHRLPLS,0.13 0.20 0.03 -0.20 -0.18 0.34,0.05,1 of 18 (1.74)
QLYAVQDMTSKNQNSVA,EQSTREN,QQYHRLPLS,0.08 0.30 -0.07 0.02 0.24 0.84,0.24,0 of 18
KISQAVNYLSRVMNSVA,DNSTRES,QQYFRLPLS,-0.04 -0.09 -0.25 -0.21 -0.35 -0.04,-0.16,0 of 18
SFSQSVLYESVHKNNVA,QTSTREE,QQYDHLPLS,0.17 -0.12 -0.19 -0.12 -0.28 0.08,-0.08,4 of 18 (2.72)
KLIQSVAMSSRNKDSIA,DNSTREN,QQYHRLPLS,1.06 0.78 0.90 0.87 0.71 0.99,0.89,2 of 18 (3.10)
KLYVSTMLEEHDKNSIA,DLSTRGN,QQYHRLPLS,0.89 0.57 0.51 0.17 0.65 1.04,0.64,0 of 18
KLGGSTRFESSNKASIA,DNSTRES,QQYHRLPLS,0.85 0.39 0.67 0.89 0.73 0.77,0.72,2 of 18 (2.34)
KIGGVTNGISRNKNSVA,EQSTREE,QQYNRLPLS,0.20 -0.07 -0.10 -0.01 0.02 0.08,0.02,4 of 18 (3.03)
KFGQGVHVESIMHNSIA,QTSTREE,QQYDRLPLS,0.80 0.56 0.59 0.43 0.43 0.67,0.58,2 of 18 (2.84)
KLSQVTHSESRNKNSIA,EMVTREK,QQYDRLPLS,0.89 1.46 1.58 1.24 1.68 1.14,1.33,3 of 18 (3.62)
KLSQVTEYESHHKNNVA,DLTTRGS,QDYHRLPLS,0.44 0.21 -0.38 0.06 0.44 0.01,0.13,0 of 18
HISMMVGTKGYLKNSVA,NAETRED,QQYHRLPLS,1.01 0.77 0.82 0.75 0.86 0.88,0.85,0 of 18
IIYDSVLTLSRNKNSVA,DNSTRES,QQYDRLPLS,1.35 0.84 1.34 1.28 1.28 1.73,1.30,1 of 18 (2.48)
KLGQMTAIESRNNNSVA,QMDTREK,QQYDRLPLS,1.11 0.96 0.90 0.80 1.12 1.00,0.98,3 of 18 (3.00)
MFSQLTYTGSRMRNAVA,QASTREN,QQYHHLPLS,nd nd nd nd nd nd,nd,0 of 18
KLYQNVGTMSHNKQSIA,DMERRMD,QQYHRLPLS,0.15 -0.13 -0.16 -0.16 -0.27 -0.06,-0.11,1 of 18 (2.26)
SLSMSMAFLSRNKNSVA,ENSTREE,QQYHRLPLL,1.79 1.66 2.08 1.95 1.70 2.27,1.91,2 of 18 (3.01)
SLMQVGGYESNNRNSIA,DLRTRES,QQYHRLPLS,0.46 0.77 0.55 0.54 0.59 0.75,0.61,2 of 18 (1.62)
KLSATYRYESQNKNSIA,EMTTRER,QCYHRLPLS,nd 1.68 nd nd nd nd,1.68,0 of 18
KISMMYRYEQQNSSSIA,EANTREN,QSYHRLPLS,2.24 2.06 nd nd 2.43 1.56,2.07,0 of 18
KISQMSTIESIIHNSVA,QTSTRES,QQYDRLPLS,nd nd nd nd nd nd,nd,0 of 18
KLIQSVAMSSRNKDSIA,DNSTREY,QQYDRLPLS,1.32 2.30 1.87 1.55 1.32 1.34,1.62,0 of 18
SLMQVGGYESNNHNSIA,DLRTRES,QQYHRLPLS,0.84 1.24 1.42 0.61 1.23 1.24,1.09,0 of 18
KLRQVTGYESYNKNSVA,QTSTRAE,QDYHRLPLS,-0.01 -0.29 -0.37 -0.26 -0.45 -0.33,-0.28,0 of 18
KLSVSMLLEQFHKNNVA,ENSTREE,QHYHRLPLS,nd nd nd nd nd nd,nd,0 of 18
MLGMTVMQGMVSRNNVA,QEETRAD,QQYHHLPLS,1.11 1.02 0.85 0.27 0.87 0.53,0.77,0 of 18
KISQLVNFLGKNKNSVA,QMSTRED,QQYDRLPLS,0.99 0.81 0.99 0.60 0.30 1.03,0.79,0 of 18
ALGDVTRMESNKKNSIA,DMSTRES,QQYHRLPLS,-0.28 -0.15 -0.24 -0.17 -0.27 0.27,-0.14,0 of 18

The last 3 entries again:

| CDR-L1 | CDR-L2 | CDR-L3 | log10 Kd, replicates | mean log10 Kd (nM) | signal with controls |
|---|---|---|---|---|---|
| MLGMTVMQGMVSRNNVA | QEETRAD | QQYHHLPLS | 1.11 1.02 0.85 0.27 0.87 0.53 | 0.77 | 0 of 18 |
| KISQLVNFLGKNKNSVA | QMSTRED | QQYDRLPLS | 0.99 0.81 0.99 0.60 0.30 1.03 | 0.79 | 0 of 18 |
| ALGDVTRMESNKKNSIA | DMSTRES | QQYHRLPLS | -0.28 -0.15 -0.24 -0.17 -0.27 0.27 | -0.14 | 0 of 18 |

The authors' rule: three or more of the six replicates give a measured affinity, fewer mean a poor binder. Values of this round are not directly comparable with the first-round values of the same sequences.